Source: US20020068814A1

Biological target: CGRP receptor of pig coronary artery (pig)
Assay: displacement of 125I-[His10]-h-αCGRP from pig coronary artery membranes

- IC50: 14.4 nM
Binder: VTHRLAGLLSRSGGVVKNNFVPTNVGSKAF [h-α-CGRP (8-37)]
